Source: publication PMC12037410, “Pharmacological targeting of BMAL1 modulates circadian and immune pathways” (Nature Chemical Biology, 2025)
Only a part of the results on these compounds is given; other tests are left out.

Protein sequences, listed by entry. Tags and fused reporters are not part of them. Residues count along the entry.
UniProt O00327, 338-449 limits assumed: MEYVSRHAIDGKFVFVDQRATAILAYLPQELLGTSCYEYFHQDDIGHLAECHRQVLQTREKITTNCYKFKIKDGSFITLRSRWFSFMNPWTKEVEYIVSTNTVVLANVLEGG

Molecular target: BMAL1 (Homo sapiens, UniProt O00327)
Conditions: binder

O=C1CCN(CCc2ccccc2)CC1
Bmal1(PASB) dTmB: -0.61 °C
